{
  "source": "patent US20070025991A1",
  "about": "“Use of antagonists of ghrelin or ghrelin receptor to treat intestinal inflammation” (priority 2003, published 2007)",
  "system": "ghrelin receptor (GHS-R) mRNA",
  "assay": "TNBS-induced colitis, colonic GHS-R mRNA by quantitative real time PCR",
  "conditions": "colon",
  "protocol": "The procedure for TNBS colitis was performed as previously described (Mazelin, L. et al., Life Sci., 63:293-304 (1998)). Briefly, after an overnight fasting, all animals were lightly anaesthetized by an intraperitoneal injection of pentobarbital sodium (70 mg/kg). A polyethylene cannula (Intramedic PE-20 tubing, Becton Dickinson, Parsippany, N.J.) was introduced into the colon (˜3.0 cm) via the anus.\nA solution (100 μl) of 40% ethanol (vehicle) or ethanol-containing TNBS (100 mg/kg; Fluka, Ronkonkoma, N.Y.) was instilled into the colon using a 1 ml syringe. Animals were held head down for one minute after the enema to ensure the permanence of the TNBS solution into the colon. […] After recording the body weight, the whole colon was removed, opened longitudinally, washed in ice-cold saline and its length (cm) and weight (mg) recorded.\nTotal RNA were prepared using a standard procedure described previously (Chomczynski, P. and Sacchi, N., Anal. Biochem., 162:156-159 (1987)). Equal amount of total RNA was used to detect the expression of ghrelin and GHS-R mRNA by regular RT-PCR, and to quantify the levels of ghrelin and GHS-R mRNA by real time PCR. […]\nTo examine the expression of ghrelin and its receptor (GHS-R), total RNA was isolated from the removed colons and their mRNA levels were determined by a quantitative real time PCR technique.",
  "data": [
    {"smiles": "O=[N+]([O-])c1cc([N+](=O)[O-])c(S(=O)(=O)O)c([N+](=O)[O-])c1", "values": [
      {"measurement": "levels of GHS-R remained increased as compared to control", "setting": "4 days after TNBS treatment (100 mg/kg, rectal)", "value": "5-6 fold"},
      {"measurement": "levels of GHS-R increased as compared to control", "setting": "one day after TNBS treatment (100 mg/kg, rectal)", "value": "up to 76 fold"}
    ]}
  ]
}
